This is a selection; strong and weak results do not stand in their true shares. Inconclusive results are not listed. Activity calls are given as the source filed them. Calls come from the whole dose curve; as a rule, active = well fitted inhibition curve with a large enough effect; inconclusive = small, poorly fitted or top-dose-only effect, or effect the other way, or another doubt; inactive = no such curve, though single readings can be large or run the other way.
These compounds were tested against Lysosomal acid glucosylceramidase (Homo sapiens) (UniProt P04062) (assay: qHTS Assay for Inhibitors and Activators of N370S glucocerebrosidase as a Potential Chaperone Treatment of Gaucher Disease). Conditions: N370S GC spleen homogenate, 4MU-glucoside fluorescence; at 59.4 µM (top of the series) unless noted.
Source text: NIH Chemical Genomics Center [NCGC]
NIH Molecular Libraries Probe Production Centers Network [MLPCN]
Assay Submitter (PI): Wei Zheng
Glucocerebrosidase (GC) catalyzes the hydrolysis of beta-glucocerebroside to glucose and ceramide in lysosomes. Mutations in the glucocerebrosidase gene result in Gaucher disease, an autosomal recessive lysosomal storage disorder. Many of the mutations encountered in patients with Gaucher disease are missense alterations that may cause misfolding, decreased stability and/or mistrafficking of this lysosomal protein. […] These inhibitors include iminosugar analogs and three non-iminosugar inhibitors identified from a previous HTS of 62,000 compounds with the wild type recombinant enzyme. However, the enhancement of enzyme activity by the chaperone action of an enzyme inhibitor must be balanced against the direct inhibition of the enzyme. An enzyme activator could also function as a chaperone by binding to the enzyme and helping to correct its misfolding and mistrafficking. While activators for GC have not yet been identified, they may have better therapeutic potential than inhibitors. Therefore the discovery and development of chemical activators may provide a new strategy for the chaperone therapy.
We have optimized a new assay using N370S mutant GC derived from the spleen of a Gaucher patient. […] In addition, the MLPCN compound library has expanded, which increases the chance of finding new and better probes.
NCGC Assay Protocol Summary:
This is a fluorogenic enzyme assay with 4-methylumbelliferyl-beta-D-glucopyranoside as the substrate and N370S glucocerebrosidase from human spleen homogenate as the enzyme preparation. Upon the hydrolysis of this fluorogenic substrate, the resulting product, […] which can be detected by a standard fluorescence plate reader. Data were normalized to the controls for basal activity (without enzyme) and 100% activity (with enzyme). The AC50 values were determined from concentration-response data modeled with the standard Hill equation.
Assay buffer: 50 mM citric acid (titrated with potassium phosphate to pH 5.0), 100 mM potassium chloride, 10 mM sodium chloride, 1 mM magnesium chloride, 0.01% Tween-20.
1536-well assay protocol:
(1) Add 2 ul/well of spleen homogenate (27 ug final)
(2) Add 23 nL compounds in DMSO solution. The final titration was 0.5 nM to 58 uM.
(3) Add 2 ul of substrate (1 mM final)
(4) Incubate at 37C for 40 min.
(5) Add 2 ul stop solution (1M NaOH and 1M Glycine mixture, pH 10)
(6) Detect the assay plate in a ViewLux plate reader (PerkinElmer) with Ex=365 nm and Em=440nm.
Keywords: Glucocerebrosidase, beta-glucosidase, Gaucher Disease, pharmacological chaperone, chaperone therapy, high throughput screening, glucocerebrosidase inhibitor, MLSMR, MLSCN, NIH Roadmap, qHTS and NCGC
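Note: 0% = full enzyme activity and -100% = no enzyme basal.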

Q: With `CCOC(=O)c1ccc(NP(C)(=O)Oc2ccc(F)cc2)cc1` (stereo not drawn) as the compound, how does the activity change, negative = inhibition read?
A: inactive: 6.33%

Q: With `COc1ccc(OP(C)(=O)Nc2ccc(SC(F)(F)F)cc2)cc1` (stereo not drawn) as the compound, how does the activity change, negative = inhibition read?
A: inactive: -12.3%

Q: Which activity change, negative = inhibition does the source give for `O=C(OCCN1CCN(CCOCc2ccccc2)CC1)C(O)(c1ccccc1)c1ccccc1` here?
A: inactive: 22.1%

Q: With `CP(=O)(Nc1ccccc1F)Oc1ccccc1` (stereo not drawn) as the compound, how does the activity change, negative = inhibition read?
A: inactive: -9.67% [at 2.35 µM]

Q: With `CC(C)c1ccc(OP(C)(=O)Nc2ccc(SC(F)(F)F)cc2)cc1` (stereo not drawn) as the compound, how does the activity change, negative = inhibition read?
A: inactive: 0.379%

Q: How did the activity change, negative = inhibition turn out when `Cc1c(NP(C)(=O)Oc2ccc(C(C)C)cc2)c(=O)n(-c2ccccc2)n1C` (stereo not drawn) was run?
A: inactive: 7.97%

Q: Which activity change, negative = inhibition does the source give for `O=[N+]([O-])c1cc([N+](=O)[O-])c(Nc2ccccn2)c([N+](=O)[O-])c1` here?
A: inactive: -5.64%

Q: How did the activity change, negative = inhibition turn out when `CP(=O)(Nc1ccccn1)Oc1ccccc1` (stereo not drawn) was run?
A: inactive: -10.7%

Q: For `COc1ccccc1OP(C)(=O)Nc1ccc(C)cc1C` (stereo not drawn), which activity change, negative = inhibition is on record?
A: inactive: -0.409%

Q: `CCc1ccc(OP(C)(=O)O)cc1` was tested. Which activity change, negative = inhibition did it give?
A: inactive: 9.1%

Q: Which activity change, negative = inhibition does the source give for `COc1ccccc1OP(C)(=O)Nc1ccc(Br)cc1` (stereo not drawn) here?
A: inactive: -0.0447%

Q: How did the activity change, negative = inhibition turn out when `CN(C)CCOC(=O)C(O)(c1ccccc1)C1CCCC1` (stereo not drawn) was run?
A: inactive: 1.37%

Q: With `Cc1nc2ccc3ccccc3c2o1.O=[N+]([O-])c1cc([N+](=O)[O-])c(O)c([N+](=O)[O-])c1` as the compound, how does the activity change, negative = inhibition read?
A: inactive: -12.7%

Q: With `CP(=O)(OCCOc1ccccc1)OCCOc1ccccc1` as the compound, how does the activity change, negative = inhibition read?
A: inactive: 3.38%

Q: Which activity change, negative = inhibition does the source give for `Cc1cc(C)cc(OP(C)(=O)Nc2cccc(C(F)(F)F)c2)c1` (stereo not drawn) here?
A: inactive: 11.2%

Q: With `C/C1=C2N=C(/C=C3N=C(/C(C)=C4\[N-][C@@](C)([C@H]5N=C1[C@@](C)(CCC(=O)NC[C@H](C)OP(=O)([O-])O[C@@H]1[C@H](O)[C@H](n6cnc7cc(C)c(C)cc76)O[C@@H]1CO)[C@@H]5CC(N)=O)[C@](C)(CC(N)=O)[C@H]4CCC(N)=O)[C@@](C)(CC(N)=O)[C@@H]\3CCC(N)=O)C(C)(C)[C@@H]/2CCC(N)=O.[C-]#N.[Co+3]` as the compound, how does the activity change, negative = inhibition read?
A: inactive: 10.9% [at 21.6 µM]

Q: How did the activity change, negative = inhibition turn out when `CCOC(=O)c1ccc(NP(C)(=O)Oc2ccc(Cl)cc2)cc1` (stereo not drawn) was run?
A: inactive: -15.2%

Q: Which activity change, negative = inhibition does the source give for `COc1ccccc1OP(C)(=O)Nc1ccccc1Br` (stereo not drawn) here?
A: inactive: 7.57%

Q: `CC(C)(C)c1ccc(OP(C)(=O)O)cc1` was tested. Which activity change, negative = inhibition did it give?
A: inactive: 7.1%

Q: For `CP(=O)(Nc1ccc(Cl)cc1)Oc1ccc(F)cc1` (stereo not drawn), which activity change, negative = inhibition is on record?
A: inactive: -6.42%

Q: Which activity change, negative = inhibition does the source give for `CN(C)C(=O)c1c([N+](=O)[O-])cc([N+](=O)[O-])cc1[N+](=O)[O-]` here?
A: inactive: 6.86%

Q: `CCN(CC)CC(O)COC(=O)C(O)(c1ccccc1)C1CCCCC1` (stereo not drawn) was tested. Which activity change, negative = inhibition did it give?
A: inactive: 2.81%

Q: For `COc1ccc(OP(C)(=O)Nc2ccc(Br)cc2)cc1` (stereo not drawn), which activity change, negative = inhibition is on record?
A: inactive: -6.52%

Q: Which activity change, negative = inhibition does the source give for `COc1ccccc1OP(C)(=O)Nc1c(C)n(C)n(-c2ccccc2)c1=O` (stereo not drawn) here?
A: inactive: 8.91%

Q: Which activity change, negative = inhibition does the source give for `O=C(OCCCN1CCCC1)C(O)(c1ccccc1)C1CCCCC1` (stereo not drawn) here?
A: inactive: -13%

Q: How did the activity change, negative = inhibition turn out when `OCCSCCO` was run?
A: inactive: 1.21%

Q: Which activity change, negative = inhibition does the source give for `CP(=O)(Oc1ccccc1)N1CCOC1=O` (stereo not drawn) here?
A: inactive: 7.24% [at 2.35 µM]

Q: `CCc1ccc(OP(C)(=O)Nc2cccnc2)cc1` (stereo not drawn) was tested. Which activity change, negative = inhibition did it give?
A: inactive: -24.5%
